The test system of one series is patients. The series is described as follows: Phase 1 clinical study: Blinatumomab with PPS co-medication. Type of series: in vivo, human. Conditions: PPS co-medication with Blinatumomab 5 then 60 μg/m^2/day. On the procedure: Three patients received in particular an intravenous PPS infusion during both the start-of-infusion phase at 5 μg/m^2/day of Blinatumomab and the dose-step phase to 60 μg/m^2/day after treatment week 1 (see also the Example section for further details). […] Thus, much to the surprise of the present inventors it was indeed possible to mitigate the expected CNS AE in these patients by way of decreasing the adhesion of re-directed T-cells to the respective endothelial cells. […] In two cases (D and E), there was even an increased T cell-count at 45 minutes. In one case (F), an increased T cell-count was still observed at 2 hours. The redistribution process and thus the underlying leukocyte adhesion to blood vessel endothelium was obviously slowed down by intervention with intravenous PPS as decreased T cell-counts in the peripheral blood were not detected earlier than 2 hours after start of infusion or stepwise dose increase of Blinatumomab.
In a phase 1 clinical study three patients were treated with Blinatumomab at an initial dose of 5 μg/m^2/day for 1 week followed by a dose escalation to 60 μg/m^2/day for additional 3 to 7 weeks. Concomitant PPS was administered as 100 mg bolus iv infusion at 3 h±30 min prior to start of infusion and dose escalation of Blinatumomab followed by perfusion of 300 mg/day for 48 h after start of infusion and dose escalation of Blinatumomab.

Series [1] relates to ICAM-1, P-selectin and VCAM-1 on HBMEC. The series is described as follows: Immunofluorescence staining of HBMEC after T cell-rolling. Type of series: cell-based, human. As to conditions: histamine-stimulated HBMEC; Blinatumomab plus pre-incubation of HBMEC with PPS. On the procedure: After rolling and adhesion of T cells on HBMEC or HUVEC under flow conditions, endothelial cells were fixed using 150 μl of 4% paraformaldehyde solution (#P-6148, Sigma-Aldrich) for 30 min at 4° C. μ-slides were rinsed with 150 μl of D-PBS and subjected to immunofluorescence staining. HBMEC were first blocked with 150 μl of avidin blocking reagent (#PHA-70871, reagent 1, Dianova) for 10 min at room temperature, washed with 150 μl of D-PBS followed by incubation with 150 μl of biotin blocking reagent (#PHA-70871, reagent 2, Dianova). All following staining procedures were performed in 150 μl of D-PBS with 5% FBS at room temperature in the dark, and washing steps were done in 150 μl of D-PBS. μ-slides were incubated with 5 μg/ml polyclonal rabbit anti-human VCAM-1 (#106777, abcam) for 1 h. After washing, 20 μg/ml goat anti-rabbit IgG-DyLight350 was added for 1 h followed by washing and incubation with 15 μg/ml mouse anti-human P-selectin IgG1 (#BBA30, R&D Systems) for 2 h. After washing, goat anti-mouse IgG-Alexa488 (1:100) (#A10680, Invitrogen) was added for 1 h. […] VCAM-1 staining was monitored with a CFL EPI-FL Filter Block UV-2A (#MBE41200, Nikon), P-selectin staining with a CFL EPI-FL Filter Block GFP-B (#MBE44740, Nikon), and ICAM-1 staining with an EPI-FL Filter Block Cy3 (#MXU96213, Nikon). […]

The source of these data is patent publication US9688760B2, “Anti-leukocyte adhesion for the mitigation of potential adverse events caused by CD3-specific binding domains” (AMGEN RESEARCH (MUNICH) GMBH, priority 2013, dated 2017).

Entries after “also recorded” stand apart in the source; their conditions may differ.

Turning to “β1→4-D-Xylan-2,3-bis(hydrogen sulfate) [PPS]”, the “treatment discontinuation due to CNS AEs” value with patients (Patient 109-036, low B:T cell-ratio) is listed as “no treatment discontinuation due to CNS AEs was required”; in the series with patients (Patient 109-040, low B:T cell-ratio) it was “no treatment discontinuation due to CNS AEs was required”; in the series on patients (Patient 109-042, low B:T cell-ratio), “no treatment discontinuation due to CNS AEs was required”. Moreover, the “cell surface expression of P-selectin on HBMEC” value in series [1] was “lesser increase; also recorded: reduced cell surface expression of P-Selectin”.
